Reference: publication PMC6317804, “The integration of pharmacophore-based 3D QSAR modeling and virtual screening in safety profiling: A case study to identify antagonistic activities against adenosine receptor, A2A, using 1,897 known drugs” (PLoS ONE, 2019)

Legend:
[1] = target: T1, adenosine receptor 2A (A2A) (Homo sapiens, UniProt P29274); assay: Functional antagonist assay monitoring cAMP (CEREP); settings: concentration-response up to 10 μM;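 further: eight-point concentration-response from 0 to 10 µM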
[2] = target: T1, adenosine receptor 2A (A2A); assay: Competition binding assay using radioactive ligands (CEREP); settings: fixed compound concentration of 10 μM;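 further: compounds screened at a single fixed 10 µM concentration for displacement of a radioligand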

## CNC(=O)c1cnn(-c2nc(N)c3ncn([C@@H]4O[C@H](CO)[C@@H](O)[C@H]4O)c3n2)c1 [Regadenoson]
[1]
  IC50, cAMP, M: N.E. (N.E., no effects. Results showing an inhibition or stimulation lower than 50% are considered to represent insignificant effects of the test compounds.)
[2]
  %inhibition, binding: 97%
